In ChEMBL document CHEMBL5247649, “Comparative Efficacy and Selectivity of Pharmacological Inhibitors of DYRK and CLK Protein Kinases” (J Med Chem, 2023):

Assays:
[1] = target: T1, Dual specificity tyrosine-phosphorylation-regulated kinase 1A (Homo sapiens, UniProt Q13627); conditions: sf9
[2] = target: T1, Dual specificity tyrosine-phosphorylation-regulated kinase 1A

## COc1ccc2sc(-c3cncc(NC(C)=O)c3)nc2c1
[1]
  IC50: 335 nM
[2]
  IC50: 50.8 nM
